miR122 inh: blocks miR-122 activity in Huh7 sensor cells | 340,000 tested, 0.3% active | AID 602342 | Huh7 miR-122 Renilla luciferase sensor, 48 h; neutral wells = 0, positive control = 100 | activation (reporter increase), % at 12.5 µM;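 active = mean replicate activation score at least 90 and every replicate individually at or above 90; inconclusive = only one of the two criteria met; inactive = neither criterion met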;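 also: higher luciferase means less miR-122 activity so hits act as miR-122 inhibitors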
TRPM1 prom inh: inhibitors of MITF-driven TRPM1 promoter in melanoma cells; SK-MEL-5 TRPM1 promoter luciferase, 24 h; inhibition, % at 12.5 µM; 330,000 tested, 0.83% active;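 active = mean inhibition across replicates of 60% or more, whatever share of single replicates reaches that level; inconclusive = some that reach 60%, reason not given; inactive = mean inhibition across replicates below 60%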
PGC1a acetyl inh: lowers PGC1a acetylation signal in U2OS cells; 350,000 tested, 0.17% active; AlphaScreen anti-acetyl-lysine; with virally co-expressed GCN5 acetyltransferase; inhibition, % at 15.6 µM;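 active = every replicate shows inhibition of at least 40%; inconclusive = mean inhibition at least 40% but some replicate below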;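 also: 0% = neutral control wells and 100% = positive control wells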
UUG fidelity: alters start codon recognition fidelity in yeast. 350,000 tested, 0.13% active. activity score, % at 18.7 µM. S. cerevisiae UUG-firefly luciferase reporter, luminescence/redox ratio;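 active = replicate mean at a twofold rise or more, about +100% in these data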;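 also: firefly luciferase made from a UUG start codon reports start codon fidelity; reporter light over untreated wells divided by growth signal over untreated wells; some hits fall short of that in this replicate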
Wnt bcat act: activates Wnt/beta-catenin signaling in a reporter cell assay; activator, plate reader; activation, % at 9.35 µM; 300,000 tested, 1.2% active; in the data active = activation above about 30%, passing the limit was not always enough; inconclusive = no clear call, values can overlap the other calls;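 also: 0% = neutral control wells and 100% = positive control wells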
MITF act: increases MITF-driven TRPM1 promoter luciferase signal; SK-MEL-5 TRPM1-promoter luciferase, 24 h; % of positive control, neutral wells = 0; activation, % at 12.5 µM; 300,000 tested, 0.75% active;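 active = mean activation of at least 80% with every replicate also reaching 80%; inconclusive = mean reaches 80% but some replicate falls short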;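 also: 0% = neutral control wells and 100% = parthenolide positive control wells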
* hit, by the source's call; ? = inconclusive; / = not tested or not shown; [ ] = remark or other dose. Shown are actives, neighbours in structure and some others; about 2.1% of the full set was active somewhere.

1	C[C@@H]1CN([C@@H](C)CO)C(=O)c2cc(NC(=O)Cn3cnnn3)ccc2O[C@H]1CN(C)C(=O)NC1CCCCC1
2	Cc1ccc(S(=O)(=O)Nc2ccc3c(c2)C(=O)N([C@H](C)CO)C[C@@H](C)[C@@H](CN(C)C(=O)Nc2ccc4c(c2)OCO4)O3)cc1
3	Cc1ccnc(NC(=O)c2ccc(Cl)s2)c1
4	O=C(Nc1ccon1)c1ccc(Cl)s1
5	Cc1ccnc(NC(=S)NC(=O)c2cccs2)c1
6	Cc1noc(C)c1S(=O)(=O)Nc1cccc2c1O[C@H](CN(C)Cc1ccc(-c3ccccc3)cc1)[C@H](C)CN([C@@H](C)CO)C2=O
assay / compound	1	2	3	4	5	6
miR122 inh	0[16.7 µM]	-4[16.7 µM]	-3	-1	5	4[16.7 µM]
TRPM1 prom inh	/	/	-88	2	-69	/
PGC1a acetyl inh	8	-16	-3	1	9	-7
UUG fidelity	-7	/	-8	/	-10	14
Wnt bcat act	/	/	/	/	34*	/
MITF act	/	/	87*	0	65	/

Overlap with the part before: 4 entries; new compounds follow.
3	Cc1ccnc(NC(=O)c2ccc(Cl)s2)c1
4	O=C(Nc1ccon1)c1ccc(Cl)s1
5	Cc1ccnc(NC(=S)NC(=O)c2cccs2)c1
6	Cc1noc(C)c1S(=O)(=O)Nc1cccc2c1O[C@H](CN(C)Cc1ccc(-c3ccccc3)cc1)[C@H](C)CN([C@@H](C)CO)C2=O
7	COc1cc(C2C3=C(COC3=O)Oc3cc4c(cc32)OCO4)ccc1OC(C)=O (stereo not given)
8	COc1cc(C2C3=C(COC3=O)Oc3cc4c(cc32)OCO4)cc(OC)c1OC(C)=O (stereo not given)
9	COc1ccc(C(=O)/C=C/C(=O)N(CC(=O)NC2CCCCC2)Cc2ccc(F)cc2)c(O)c1
10	COc1ccc(C(=O)/C=C/C(=O)N(CC(=O)NCCC(C)C)Cc2cccs2)c(O)c1
11	COc1ccc(NS(=O)(=O)c2ccc(N3CCOCC3)c(NC(=O)c3cccc(F)c3)c2)cc1
12	COc1ccc(NS(=O)(=O)c2ccc(N3CCOCC3)c(NC(=O)c3ccc(F)cc3)c2)cc1
assay / compound	3	4	5	6	7	8	9	10	11	12
miR122 inh	-3	-1	5	4[16.7 µM]	13	101*	1	/	190*	179*
TRPM1 prom inh	-88	2	-69	/	24	55	99*	84*	-1	-6
PGC1a acetyl inh	-3	1	9	-7	30	-12	/	/	/	/
UUG fidelity	-8	/	-10	14	/	/	-20	/	/	1
Wnt bcat act	/	/	34*	/	-8	-22	0	-1	/	-2
MITF act	87*	0	65	/	/	-55	-99	-84	-3	9

13	COCCNC(=O)C[C@H]1C[C@@H]2c3cc(NC(=O)COC)ccc3O[C@@H]2[C@@H](CO)O1
14	C[C@@H]1CN([C@H](C)CO)C(=O)c2cc(-c3cccnc3)cnc2O[C@H]1CN(C)C(=O)C1CCC1
15	CCOC(=O)N1CCN(C(=O)C2CCN(C(=O)c3ccccc3C)CC2)CC1
16	COc1cc(/C=C/C(=O)Nc2ccc(N3CCCCC3)c(S(=O)(=O)Nc3ccccc3Cl)c2)cc(OC)c1OC
17	O=C(Nc1cccc(C(F)(F)F)c1)Nc1ccc(N2CCCC2)c(S(=O)(=O)Nc2ccccc2Cl)c1
18	COc1ccccc1NS(=O)(=O)c1cc(NC(=O)Nc2ccc(Cl)cc2Cl)ccc1N1CCCCC1
assay / compound	13	14	15	16	17	18
miR122 inh	4[16.7 µM]	-6[16.7 µM]	11	289*	/	?
TRPM1 prom inh	/	/	74*	4	72*	8
PGC1a acetyl inh	17	-9	-25	/	/	-23
UUG fidelity	2	-11	-21	/	/	-17
Wnt bcat act	/	/	-1	/	/	-10
MITF act	/	/	-74	-2	-69	-9

19	C[C@@H]1CN([C@@H](C)CO)S(=O)(=O)c2ccc(-c3cccnc3)cc2O[C@@H]1CN(C)C(=O)C1CC1
20	COc1ccc(-c2ccc(/C=N/NC(=O)Cc3nnc(N)s3)o2)cc1Cl
21	Cc1ccc(C(=O)c2coc3ccc(O)c(Cl)c23)cc1
22	O=C(c1ccccc1)c1coc2ccc(O)c(Cl)c12
23	Cc1cccc(CN(C)C[C@@H]2Oc3ncc(-c4cc5ccccc5o4)cc3C(=O)N([C@H](C)CO)C[C@@H]2C)c1
24	COc1cc2nc(SCc3ccc(F)cc3)n(Cc3cccs3)c(=N)c2cc1OC
assay / compound	19	20	21	22	23	24
miR122 inh	-4[16.7 µM]	-5	6	-5	-5[16.7 µM]	-5
TRPM1 prom inh	/	/	-63	-71	/	11
PGC1a acetyl inh	-7	57*	2	16	-11	5
UUG fidelity	/	-11	-13	-6	-9	-7
Wnt bcat act	/	3	67*	0	/	/
MITF act	/	/	/	76	/	-13

25	COc1ccc(Cn2c(SCc3ccccc3C)nc3cc(OC)c(OC)cc3c2=N)cc1
26	COCC(=O)Nc1ccc2c(c1)OC[C@@H](C)N(Cc1ccccn1)C[C@H](C)[C@H](OC)CN(C)C2=O
27	O=C(Nc1ccc(F)cc1F)c1cc2ccccc2oc1=O
28	O=C(Oc1ccc(-c2cnc3ccccc3n2)cc1)c1ccco1
29	Cc1ccc(NC(=O)c2cc3ccccc3o2)cc1S(=O)(=O)N(C)C
30	Cc1ccc(NC(=O)c2ccc(OC(=O)c3cc4ccccc4o3)cc2)cc1
assay / compound	25	26	27	28	29	30
miR122 inh	-62	/	-2	8	3	-5
TRPM1 prom inh	84*	/	-48	-76	-63	-54
PGC1a acetyl inh	6	2	3	11	5	-3
UUG fidelity	-8	-10	-16	-41	-18	-16
Wnt bcat act	/	/	50*	69*	/	43*
MITF act	/	/	/	?	62	60

31	Cc1ccc(NC(=O)c2cc3ccccc3oc2=O)cc1S(=O)(=O)N(C)C
32	O=C(C[C@H]1C=C[C@H](NC(=O)C2CCC2)[C@H](CO)O1)NC1CCC1
33	O=C(N[C@@H]1C=C[C@H](CC(=O)N2CCN(c3ccccc3)CC2)O[C@@H]1CO)c1ccncc1
34	O=C(C1CC1)N1C[C@H]2[C@@H](c3ccccc31)[C@@H](CO)N2C(=O)Nc1cccc(F)c1
35	O=C(C[C@H]1CC[C@@H](NS(=O)(=O)c2ccccc2)[C@H](CO)O1)NCc1ccccc1F
36	Cc1ccc(NC(=O)c2ccc(OC(=O)c3ccco3)cc2)cc1
assay / compound	31	32	33	34	35	36
miR122 inh	5	0[16.7 µM]	10[16.7 µM]	30[16.7 µM]	/	-2
TRPM1 prom inh	76*	/	/	/	/	-113
PGC1a acetyl inh	0	-2	-5	13	-14	-8
UUG fidelity	/	-7	/	16	1	-14
Wnt bcat act	/	/	/	/	/	20
MITF act	-75	/	/	/	/	121*

37	Cc1ccc(Oc2ccc(NC(=O)c3ccco3)cc2)cc1
38	Cc1ccc(C(=O)Nc2cc3ccccc3oc2=O)cc1
39	CC(=O)Nc1cc2ccccc2oc1=O
40	C[C@@H]1CN([C@H](C)CO)C(=O)c2cc(C3=CCCC3)cnc2O[C@@H]1CN(C)Cc1ccccc1
41	C[C@H]1CN([C@@H](C)CO)C(=O)c2cc(Br)cnc2O[C@H]1CN(C)C(=O)c1ccc(F)cc1
42	CN(C)c1ccc(/C=C2\c3ccccc3C(=O)N2c2ccccc2)cn1
assay / compound	37	38	39	40	41	42
miR122 inh	-1	1	-8	-10[16.7 µM]	-9[16.7 µM]	-8
TRPM1 prom inh	-38	91*	6	/	/	/
PGC1a acetyl inh	-18	-19	9	-4	6	6
UUG fidelity	8	/	/	-1	/	-10
Wnt bcat act	26	-10	7	/	/	2
MITF act	43	-91	-4	/	/	/

43	O=C1c2ccccc2/C(=C\C#Cc2ccccn2)N1c1ccccc1
44	O=C(NCc1ccccc1)c1cccnc1
45	O=C(NCCc1ccccc1)c1cnc2ccccc2n1
46	O=C(Nc1ccc2ccccc2c1)c1cccc([N+](=O)[O-])c1
47	O=C(Nc1cccc([N+](=O)[O-])c1)c1ccccc1
48	O=C(NCCc1ccccc1)c1cccc([N+](=O)[O-])c1
49	Cc1ccc(CNC(=O)c2cnc3ccccc3n2)cc1
50	O=C(NCCc1ccccc1)c1cccnc1
assay / compound	43	44	45	46	47	48	49	50
miR122 inh	/	-9	6	9	3	-3	-2	3
TRPM1 prom inh	-91	10	-82	-94	-14	-95	-12	-44
PGC1a acetyl inh	/	14	4	5	-6	-1	-3	-2
UUG fidelity	-5	-10	-12	0	-14	6	-25	-2
Wnt bcat act	18	0	45*	29	4	/	12	34*
MITF act	95*	/	85*	98*	21	94*	7	45
